Reference: patent US7498304B2, “Angiogenesis-modulating compositions and uses” (Curis, Inc., priority 2002, dated 2009)

How the values were obtained:
embryonic prostate = details: W. Bushman, unpublished result; cited from earlier work
[1] = test system: Shh signaling pathway in MEFs homozygous for ptc-lacZ (cell line 23-1); test: β-galactosidase activity in ptc-lacZ homozygous mouse embryonic fibroblasts; assay type: cell-based; details: normalized to whole protein content

In the case of `CC1=C2C[C@H]3[C@@H](CC=C4C[C@@H](O)CC[C@@]43C)[C@@H]2CC[C@]12O[C@@H]1C[C@H](C)CN[C@H]1[C@H]2C` [cyclopamine], the “growth and branching of embryonic prostate” value (embryonic prostate) is given as “inhibits growth and branching” and the β-galactosidase activity [1] is given as “β-galactosidase activity is decreased”.
